One assay deals with normal lung cell WI38. Put plainly: MTT cytotoxicity assay, normal lung cell WI38. The class given is cell-based. The procedure: (§1) The selectivity index identifies the selectivity of the tested compounds toward the cancer cell line and is calculated by dividing the IC50 against the normal cell line by the IC50 against the cancer cells.
On the technique in general: Formazan colour is commonly taken as a measure of viable cells.

Assay [1] concerns leukemia cancer K562 cells. Put plainly: Annexin V-FITC/propidium iodide apoptosis detection, K562. Type of assay: cell-based, human. The settings on record: K562, versus untreated cells. The method, then:
For cell cycle analysis, a propidium iodide flow cytometry kit (ab139418, Abcam, Cambridge, UK) was used. For apoptosis, we used an annexin V apoptosis kit, which is composed of annexin V-FITC (fluorescein isothiocyanate), 1X binding buffer, and propidium iodide. Detection was conducted by measuring DNA content using a flow cytometer.

Assay [2] concerns normal blood cell PCS-800-016. Put plainly: MTT cytotoxicity assay, normal blood cell PCS-800-016. The class given is cell-based. The method, then:
as §1

Consider `O=C(O)C1CCCNC1` [Compound 3, D-piperidine-3-carboxylic acid], for which, in the assay on normal lung cell WI38, the “SI (Lung), selectivity index” value was found to be 3.64. For the same compound, in assay [1], the “Fold increase of early apoptosis than control” value came out at 6.30 fold, the “Fold increase of late apoptosis than control” value is recorded as 758.75 fold, the “Fold increase of necrosis than control” value is given as 8.30 fold and the “Fold increase of total cell death than control” value is given as 25.73 fold. For the same compound, the “SI (Blood Cell), selectivity index” value in assay [2] was found to be 11.37.

The values are drawn from paper PMC9609924, “In Vitro Characterization of Inhibitors for Lung A549 and Leukemia K562 Cell Lines from Fungal Transformation of Arecoline Supported by In Silico Docking to M3-mAChR and ADME Prediction” (Pharmaceuticals, 2022).
